Measured values as given in ChEMBL document CHEMBL5107935, “Modulating β-arrestin 2 recruitment at the δ- and μ-opioid receptors using peptidomimetic ligands” (RSC Med Chem, 2021).

Protein sequences, listed by entry. Tags and fused reporters are not part of them.
UniProt P35372, whole entry: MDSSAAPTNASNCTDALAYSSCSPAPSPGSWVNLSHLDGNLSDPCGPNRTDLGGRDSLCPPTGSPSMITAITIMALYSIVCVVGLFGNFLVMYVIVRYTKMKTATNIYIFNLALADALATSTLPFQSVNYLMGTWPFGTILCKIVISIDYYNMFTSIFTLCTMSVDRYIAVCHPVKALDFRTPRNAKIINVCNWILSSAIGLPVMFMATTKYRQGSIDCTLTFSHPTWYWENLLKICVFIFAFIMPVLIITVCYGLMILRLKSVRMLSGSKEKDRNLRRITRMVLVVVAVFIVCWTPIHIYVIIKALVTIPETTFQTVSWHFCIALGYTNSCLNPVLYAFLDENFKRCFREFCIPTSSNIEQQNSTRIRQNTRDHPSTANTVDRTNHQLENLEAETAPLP
UniProt P41143, whole entry: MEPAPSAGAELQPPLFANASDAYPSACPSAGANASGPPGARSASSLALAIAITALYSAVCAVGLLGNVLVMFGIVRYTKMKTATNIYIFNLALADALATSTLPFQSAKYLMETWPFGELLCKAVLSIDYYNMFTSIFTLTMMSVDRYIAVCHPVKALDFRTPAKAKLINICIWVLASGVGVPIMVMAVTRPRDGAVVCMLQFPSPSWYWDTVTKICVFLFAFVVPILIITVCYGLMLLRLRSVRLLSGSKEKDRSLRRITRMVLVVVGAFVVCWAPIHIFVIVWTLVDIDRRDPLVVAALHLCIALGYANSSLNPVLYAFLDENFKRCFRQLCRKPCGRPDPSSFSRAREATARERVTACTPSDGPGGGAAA

Tests used:
[1] = molecular target: T1, Mu-type opioid receptor (Homo sapiens, UniProt P35372); assay: Agonist activity at human mu opioid receptor expressed in CHO cells co-expressing beta-arrestin2 assessed as beta-arrestin2 recruitment measured after 90 mins by PathHunter assay; format: functional, cell-based
[2] = molecular target: T2, Delta-type opioid receptor (Homo sapiens, UniProt P41143); assay: Displacement of [3H]DPDPE from human delta opioid receptor expressed in CHO cell membrane measured after 90 mins by liquid scintillation counting method; format: cell membranes
In short: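 Membranes (7 μg protein) were added and incubated 90 min at room temperature in 50 mM Tris HCl, 10 mM MgCl2, 1 mM EDTA, pH 7.4. Samples were filtered on GF-B, washed 4× with ice-cold 50 mM Tris HCl, and counted by scintillation. Points were run in duplicate.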

[3] = molecular target: T1, Mu-type opioid receptor; assay: Displacement of [3H]DAMGO from human mu opioid receptor expressed in CHO cell membrane incubated for 90 mins by liquid scintillation counting method; format: cell membranes
[4] = molecular target: T2, Delta-type opioid receptor; assay: Agonist activity at human delta opioid receptor expressed in CHO cells co-expressing beta-arrestin2 assessed as beta-arrestin2 recruitment measured after 90 mins by PathHunter assay; format: functional, cell-based
In short: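 PathHunter CHO cells expressing human δOR and β-arrestin 2 were plated at 2,500 cells/well one day before use. Drug was applied for 90 min at 37 °C/5% CO2, followed by PathHunter assay buffer for 60 min at room temperature. Luminescence was read. Points were run in duplicate, and pEC50 was obtained by nonlinear regression; values are means ± SEM.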

SMILES: CC(C)C[C@H](NC(=O)[C@H](Cc1ccccc1)NC(=O)CNC(=O)C/C=C(\F)[C@@H](N)Cc1ccc(O)cc1)C(=O)O
- EC50 [1]: 32000 nM
- Ki [2]: 25.6 nM
- Ki [3]: 42.7 nM
- EC50 [4]: 764 nM
